Experimental data published in PMC5832440 (Structure (London, England : 1993), 2014).

Biological target: GST-DPY-30 (full-length DPY-30, wild type, in fusion with GST)
Assay: peptide or protein array

B1: ASH2L^SDI (503-523) peptide with V509 replaced by aspartic acid, on the SPOT array (peptide, UniProt Q9UBL3-3 503-523, looked up)
peptide: MGWGAVDEHTLADVLYHVETE
  binding result: binds
